{"source": "paper PMC9130538", "about": "“Amino acids in transmembrane helix 1 confer major functional differences between human and mouse orthologs of the polyspecific membrane transporter OCT1” (The Journal of Biological Chemistry, 2022)", "key": {"[1]": {"target": "T1, human OCT1 with mouse TMH1 (human–mouse chimeric OCT1) (Homo sapiens, UniProt O15245, A31S/C36Y/F32L/I24L/L28I)", "T1 construct": "expressed in transfected cells", "T1 sequence (O15245 1-554 I24L/L28I/A31S/F32L/C36Y)": "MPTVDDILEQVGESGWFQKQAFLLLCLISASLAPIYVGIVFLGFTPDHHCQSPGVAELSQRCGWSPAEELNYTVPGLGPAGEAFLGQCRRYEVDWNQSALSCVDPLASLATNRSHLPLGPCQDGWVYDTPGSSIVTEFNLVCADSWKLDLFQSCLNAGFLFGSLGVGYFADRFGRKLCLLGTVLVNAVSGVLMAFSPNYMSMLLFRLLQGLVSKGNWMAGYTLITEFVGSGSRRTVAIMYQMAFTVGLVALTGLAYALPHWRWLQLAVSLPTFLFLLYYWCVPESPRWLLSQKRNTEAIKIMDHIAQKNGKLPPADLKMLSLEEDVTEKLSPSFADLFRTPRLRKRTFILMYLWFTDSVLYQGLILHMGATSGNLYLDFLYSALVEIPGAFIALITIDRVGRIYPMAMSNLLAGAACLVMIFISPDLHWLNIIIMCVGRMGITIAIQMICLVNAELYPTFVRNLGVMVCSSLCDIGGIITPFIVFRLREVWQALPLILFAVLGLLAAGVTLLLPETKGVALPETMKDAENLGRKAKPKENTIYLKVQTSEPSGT", "assay": "Uptake by HEK293 cells transiently overexpressing chimeric human OCT1 carrying mouse TMH1", "format": "cell-based", "conditions": "50 μM fenoterol, 2 min, transient transfection", "protocol": "(§1) Human–mouse chimeric OCT1 constructs were generated using the overlap extension method ([50]) and have been characterized before ([34]). […] All constructs were validated by capillary sequencing of the complete open reading frame of OCT1 before transfection into HEK293 cells.\n(§2) For transient transfection of OCT1 constructs into HEK293 cells for uptake experiments, 5 × 10^5 T-REx-293 cells (Life Technologies) were seeded per well in 12-well plates precoated with poly-D-lysine. […] At 48 h later, transfection efficacy was assessed microscopically by visualizing the GFP signal of the cotransfected GFP vector, and the cells were subsequently used for uptake experiments. […]\n(§3) Cellular uptake experiments were performed at 37 °C and pH 7.4 using HBSS supplemented with 10 mM Hepes (in the following referred to as HBSS+). […] Cells were washed twice with 2 ml ice-cold HBSS+ and lysed with 80% acetonitrile supplemented with internal standard, 0.1 N NaOH/0.1% SDS, or radioimmunoprecipitation buffer for LC–MS/MS, liquid scintillation counting, or fluorescence spectroscopy detection, respectively. Intracellular substrate concentrations were measured as described in the following and were then normalized to the amount of total protein in the samples as measured using the bicinchoninic acid assay ([51]). […]"}, "mouse Oct1 Leu32Phe": {"target": "T2, mouse Oct1 Leu32Phe (Mus musculus, UniProt O08966, L32F)", "T2 construct": "expressed in transfected cells", "T2 sequence (O08966 1-556 L32F)": "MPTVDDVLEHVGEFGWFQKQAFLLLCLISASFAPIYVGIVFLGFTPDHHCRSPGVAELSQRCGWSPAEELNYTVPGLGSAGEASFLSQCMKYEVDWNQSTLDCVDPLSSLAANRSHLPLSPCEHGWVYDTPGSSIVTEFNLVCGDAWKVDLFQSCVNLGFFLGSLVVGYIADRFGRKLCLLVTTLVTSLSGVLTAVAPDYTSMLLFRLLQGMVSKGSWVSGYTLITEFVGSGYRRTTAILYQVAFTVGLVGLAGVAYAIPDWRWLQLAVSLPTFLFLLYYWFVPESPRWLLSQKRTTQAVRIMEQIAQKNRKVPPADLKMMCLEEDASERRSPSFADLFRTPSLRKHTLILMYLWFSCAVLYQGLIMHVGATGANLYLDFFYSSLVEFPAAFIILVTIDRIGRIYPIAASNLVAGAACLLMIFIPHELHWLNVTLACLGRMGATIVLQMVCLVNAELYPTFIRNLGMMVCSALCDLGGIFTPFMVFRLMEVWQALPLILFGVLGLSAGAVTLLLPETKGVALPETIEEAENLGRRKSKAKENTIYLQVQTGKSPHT", "assay": "Uptake by HEK293 cells overexpressing Leu32Phe mouse Oct1", "format": "cell-based", "conditions": "50 μM fenoterol, 2 min, transient transfection", "protocol": "as §1, §2, §3"}, "human OCT1 Phe32Leu": {"target": "T3, human OCT1 Phe32Leu (Homo sapiens, UniProt O15245, F32L)", "T3 construct": "expressed in transfected cells", "T3 sequence (O15245 1-554 F32L)": "T1 sequence (O15245 1-554 I24L/L28I/A31S/F32L/C36Y) with L24I, I28L, S31A, Y36C", "assay": "Uptake by HEK293 cells overexpressing Phe32Leu human OCT1", "format": "cell-based", "conditions": "50 μM fenoterol, 2 min, transient transfection", "protocol": "as §1, §2, §3"}, "mouse Oct1": {"target": "T4, mouse Oct1 (Mus musculus, UniProt O08966)", "T4 sequence (O08966 1-556)": "T2 sequence (O08966 1-556 L32F) with F32L", "assay": "Cellular uptake by HEK293 cells overexpressing mouse Oct1 (wildtype)", "conditions": "HEK293 stably transfected, 2 min uptake, 37 °C, pH 7.4, OCT1-mediated uptake", "protocol": "(§4) Generation and characterization of these cell lines has been described in detail before ([34], [48], [49]). Cells were cultured in Dulbecco’s Modified Eagle’s Medium supplemented with 10% fetal bovine serum, 100 U/ml penicillin, and 100 μg/ml streptomycin at 37 °C and 5% CO2 and were passaged twice a week.\n(§5) At 48 h prior to the experiment, 6 × 10^5 cells were seeded per well in 12-well plates. When using transiently transfected cells, 5 × 10^5 T-REx-293 cells (Life Technologies) were seeded per well in 12-well plates 72 h prior to the experiment, and they were transfected 24 h later as described previously. Twelve-well plates were precoated with poly-D-lysine.\nas §3"}, "human OCT1": {"target": "T5, human OCT1 (Homo sapiens, UniProt O15245)", "T5 sequence (O15245 1-554)": "T1 sequence (O15245 1-554 I24L/L28I/A31S/F32L/C36Y) with L24I, I28L, S31A, L32F, Y36C", "assay": "Cellular uptake by HEK293 cells overexpressing human OCT1 (wildtype)", "conditions": "for vmax ± SD, hOCT1: HEK293 stably transfected, 2 min uptake, 37 °C, pH 7.4, OCT1-mediated uptake", "protocol": "as §4, §5\nCellular uptake experiments were performed at 37 °C and pH 7.4 using HBSS supplemented with 10 mM Hepes (in the following referred to as HBSS+). Cells were washed with 1 ml prewarmed (37 °C) HBSS+, and the uptake was initiated by adding 400 μl of prewarmed HBSS+ containing the substrate. Uptake was allowed for exactly 2 min and afterward stopped by adding 2 ml ice-cold HBSS+. Cells were washed twice with 2 ml ice-cold HBSS+ and lysed with 80% acetonitrile supplemented with internal standard, 0.1 N NaOH/0.1% SDS, or radioimmunoprecipitation buffer for LC–MS/MS, liquid scintillation counting, or fluorescence spectroscopy detection, respectively. Intracellular substrate concentrations were measured as described in the following and were then normalized to the amount of total protein in the samples as measured using the bicinchoninic acid assay ([51]).\nFor LC–MS/MS quantification of intracellular substrate concentrations, the cell lysate was centrifuged at 16,000g for 15 min, and 350 μl of supernatant was evaporated to dryness under nitrogen flow at 40 °C. The sample was reconstituted with 200 μl 0.1% formic acid, and between 2 and 30 μl were injected into the LC–MS/MS system (Table S1).\nAn API4000 QTRAP tandem mass spectrometer with ESI interface (AB SCIEX) was used, coupled to a Shimadzu Nexera X2 UHPLC system with LC 30AD pumps and SiL 30AC autosampler (Shimadzu).\nIntracellular concentrations of radioactively labeled substrates MPP^+ and TEA^+ were quantified using liquid scintillation counting. To this end, 400 μl cell lysate was transferred into a 20 ml scintillation vial, 9 ml Aquasafe 500 Plus liquid scintillator (both Zinsser Analytics) was added, and the sample was measured in the Scintillation Counter LS6500 (Beckman Coulter).\nFor both analyses, SPSS Statistics, version 28 (SPSS, Inc, IBM) was used."}, "mouse Oct1 Tyr36Cys": {"target": "mouse Oct1 Tyr36Cys (Mus musculus, UniProt O08966, Y36C)", "conditions": "50 μM fenoterol, 2 min, transient transfection, versus mouse wildtype", "protocol": "as §1, §2, §3"}, "human OCT1 Cys36Tyr": {"target": "T6, human OCT1 Cys36Tyr (Homo sapiens, UniProt O15245, C36Y)", "T6 construct": "expressed in transfected cells", "T6 sequence (O15245 1-554 C36Y)": "T1 sequence (O15245 1-554 I24L/L28I/A31S/F32L/C36Y) with L24I, I28L, S31A, L32F", "assay": "Uptake by HEK293 cells overexpressing Cys36Tyr human OCT1", "format": "cell-based", "conditions": "2 min, transient transfection", "protocol": "as §1, §2, §3"}}, "note": "Numbering of substitutions follows the chain as printed.", "data": [{"molecule": "CC(Cc1ccc(O)cc1)NCC(O)c1cc(O)cc(O)c1", "note": "(stereo not shown) [Fenoterol]", "values": [{"measurement": "increase of fenoterol uptake compared with the human wildtype", "setting": "[1]", "result": 25, "unit": "%"}, {"measurement": "effect of Leu32Phe on fenoterol uptake", "setting": "mouse Oct1 Leu32Phe", "result": "did not affect"}, {"measurement": "effect of Phe32Leu on fenoterol uptake", "setting": "human OCT1 Phe32Leu", "result": "did not affect"}, {"measurement": "vmax ± SD, mOct1", "setting": "mouse Oct1", "result": "780.8 ± 68.5 pmol × min^−1 × mg protein^−1"}, {"measurement": "difference in uptake between human and mouse OCT1 at low concentration", "setting": "human OCT1", "result": "did not see differences in uptake"}, {"measurement": "fenoterol uptake related to the uptake of the mouse ortholog", "setting": "human OCT1", "result": 10.5, "unit": "%"}, {"measurement": "fold lower capacity (vmax) of human than of mouse OCT1", "setting": "human OCT1", "result": 8.8, "unit": "fold"}, {"measurement": "vmax ± SD, hOCT1", "setting": "human OCT1", "result": "90.5 ± 19.3 pmol × min^−1 × mg protein^−1"}, {"measurement": "reduction of fenoterol uptake by Tyr36Cys in mouse Oct1", "setting": "mouse Oct1 Tyr36Cys", "result": 90, "unit": "%"}, {"measurement": "fold increase of fenoterol uptake of human OCT1 by Cys36Tyr", "setting": "human OCT1 Cys36Tyr; 50 μM fenoterol, versus human wildtype", "result": 4.8, "unit": "fold"}, {"measurement": "fenoterol uptake related to the uptake of the mouse ortholog", "setting": "human OCT1 Cys36Tyr; Cys36Tyr human OCT1, 50 μM fenoterol", "result": 49.8, "unit": "%"}]}, {"molecule": "[H]/N=C(/N)N/C(=N/[H])NCCc1ccccc1", "note": "[Phenformin]", "values": [{"measurement": "vmax ± SD, mOct1", "setting": "mouse Oct1", "result": "1072 ± 182 pmol × min^−1 × mg protein^−1"}, {"measurement": "vmax ± SD, hOCT1", "setting": "human OCT1", "result": "1957 ± 418 pmol × min^−1 × mg protein^−1"}]}]}
